Measured values published in patent US12419308B2, “Phenylpyrazole insecticide compounds and compositions” (priority 2023, dated 2025).

Key:
[1] = Plasma concentration analysis in topically treated chickens
Experimental: To explore the therapeutic potential of the compounds of the present disclosure, live chickens with mite infestation (Dermanyssus gallinae) are treated topically with solutions of test compound, with Fipronil as a positive control. Test solutions are prepared by dissolving the test compound in a mixture of 2-butoxyethanol, ethanol, and water (7:2:1) to reach a final concentration of 0.25% (w/v).
The test solution is administered using a mechanical spray pump delivering 0.5 mL of solution per actuation. The test solution is sprayed over the entire surface of the animal's body from a distance of 10-20 centimeters, resulting in direct contact of the solution with the animal's skin. The dosage applied to each animal is 3 mL/kg, equivalent to 7.5 mg/kg (kg live weight). The dosage is achieved using six actuations of the spray per kg of body weight per day. The treatment is administered once daily for 5 days at 24 hours intervals. One animal is left untreated as a negative control.
Blood samples are taken from each animal before the first treatment (T=0), and at 24-hour intervals thereafter. Each egg produced after a treatment is collected for later analysis.
Plasma samples are derived from each blood sample using standard procedures immediately after blood collection. Plasma is stored frozen at −80° C. until the time of analysis. […]
Plasma samples from Day 3 and Day 5 are analyzed.

[2] = Egg concentration analysis from topically treated chickens; format: in vivo; conditions: Compound of Example 1 treatment; Chicken 2, egg from 5 days
Experimental: One animal is left untreated as a negative control.
A modified and optimized QuEChERS protocol was employed to extract the compounds from eggs. The shell is manually removed, and then each egg is transferred to a clean beaker and homogenized with an electric mixer for small volumes. 5 grams of homogenized egg is put into a 50 mL Falcon tube, and 5 mL of water is added and the samples are shaken for 10 minutes. Next, 10 mL of acetonitrile is added and the samples are shaken again for 10 minutes. Then the roQ salts (4.0 g MgSO4, 1.0 g NaCl, 1.0 SCTD and 0.5 g SCDS, Phenomenex P/N KS08909) are added to each sample, and the mixture is well shaken for 10 minutes. Samples are then centrifuged at 2500 g for 5 minutes at room temperature, and the supernatant is transferred to an HPLC vial for analysis. The same HPLC-MS method is used as described above.
One egg from two chickens is analyzed: one chicken treated with Fipronil and one chicken treated with the Compound of Example 1. The eggs are both from Day 5. The results are shown in the following tables expressed as relative LC-MS peak area: […]

Structure (SMILES): N#Cc1nn(-c2c(Cl)cc(C(F)(F)F)cc2Cl)c2nc(O)cc(C(F)(F)F)c12 [Example 1, 1-(2,6-dichloro-4-(trifluoromethyl)phenyl)-6-hydroxy-4-(trifluoromethyl)-1H-pyrazolo[3,4-b]pyridine-3-carbonitrile]
- Metabolites observed in plasma (LC-MS) ([1]; chicken plasma after topical treatment): No metabolites
- Systemic absorption and plasma accumulation compared to Fipronil ([1]; chickens, topical treatment, day 3 and day 5 plasma): substantially less systemic absorption and plasma accumulation
- Relative LC-MS peak area of analyte in egg [2]: 3.0
